Test results from patent US9782491B2, “Peptide conjugates for treating pain” (priority 2012, dated 2017).

How the values were obtained:
adult rat DRG neurons = assay: Fura-2 calcium imaging of K+-stimulated Ca2+ influx; assay type: cell-based; conditions: 20 min incubation; 3 μM and 30 μM (FIG. 1); 46.5 mM KCl
[1] = target: interaction between CaV2.2 and CRMP2 (Rattus norvegicus, UniProt P47942); assay: Immunoprecipitation with CaV2.2 antibody from rat dorsal root ganglia lysate, CRMP2 immunoblot; assay type: biochemical; conditions: 10 μM peptide added for 30 min; rat DRG

CC[C@H](C)[C@H](NC(=O)[C@H](Cc1c[nH]c2ccccc12)NC(=O)[C@H](CCC(=O)O)NC(=O)[C@H](CC(C)C)NC(=O)[C@@H](N)Cc1ccc(O)cc1)C(=O)N[C@@H](Cc1ccccc1)C(=O)N[C@@H](CCCCN)C(=O)N[C@@H](C)C(=O)N[C@@H](CCC(=O)O)C(=O)N[C@@H](CCC(=O)O)C(=O)N[C@H](C(=O)N[C@@H](CCSC)C(=O)N[C@@H](CC(C)C)C(=O)N[C@@H](C)C(=O)N[C@@H](CCC(=O)O)C(=O)O)C(C)C [L1, YLEWIFKAEEVMLAE]
K+-stimulated [Ca2+]c influx (adult rat DRG neurons): concentration-dependent decrease
amount of CRMP2 captured with CaV2.2 antibody [1]: reduced the amount of CRMP2 that could be captured
